# miR-21 reporter: raises the signal of a miR-21 reporter | Potency, µM (highest dose often 38.3 µM) | HeLa miR-21 FLuc reporter, luciferase, 48 h | 340,000 tested, under 10 active; active = well fitted rising curve with a large enough effect; inconclusive = small, poorly fitted or top-dose-only effect; inactive = no such curve, though single readings can be large or run the other way;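 further: miR-21 action dims this reporter so a rising signal means less miR-21 action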
#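 Luminescence from a firefly luciferase reporter carrying a miR-21 binding site downstream, stably expressed under a CMV promoter in HeLa cells that make miR-21 endogenously, reports miRNA modulation after 48 h compound exposure up to approximately 40uM final.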
# Glioma ERSR ind: inducers of ER stress response in human glioma cells. U87-MG GRP78 promoter luciferase reporter, 16 h. Potency, µM, hits mostly activators. actives 0.02% (n = 420,000). AID 602332; further: series mostly up to about 76 µM; nearly all actives have a fitted effect of over 35% in size
#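 Stably transfected U87-MG glioma cells carrying a GRP78-based luciferase sensor; 16 h compound incubation. Luminescence end-point read 10 min after Bright-Glo addition at room temperature.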
# Nrf2 block: blocks Nrf2 signaling; A549 ARE-Fluc reporter, luciferase luminescence, 18-24 h; Potency, µM (highest dose often 46 µM), usual class: inhibitors; actives 2.1% (n = 360,000); AID 504444; further: nearly all actives have a fitted effect of over 60% in size
#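 Concentration-response testing used A549 ARE_Fluc cells at 5000 cells/well. Following an 18-24 h compound incubation, viability was read by fluorescence (Ex 405/Em 525) and luciferase output by luminescence.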
# TSG101-PTAP inh: blocks PTAP/TSG101 interaction to inhibit HIV-1 budding; Q99816; Fluorescence polarization, FITC-PTAP peptide / Tsg101 binding; Potency, µM (doses to about 115 µM), hits mostly inhibitors; 340,000 tested, under 10 active; active means well fitted inhibition curve with a large enough effect in the main read-out, with a control signal flat, not every such curve was filed as active; inconclusive means small, poorly fitted or top-dose-only effect, or effect the other way, or a change in a side signal; inactive means no such curve, though single readings can be large or run the other way
#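 Fluorescence polarization binding of Tsg101 binding domain (10 uM final) to FITC-labeled PTAP peptide (50 nM final) in HEPES pH 7.5 buffer with NaCl, Tween 20, EDTA, TCEP. Compounds added before peptide; binding 20 min at RT.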
# A549 tox: A549 cytotoxicity, counter-screen for Nrf2 inhibitors. A549 ARE-Fluc cells, CellTiter-Fluor viability, 18-24 h. Potency, µM (doses to about 46 µM), most hits filed as inhibitors. actives 0.16% (n = 390,000). AID 504648
#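 Cytotoxicity counterscreen: CellTiter-Fluor fluorescence was measured in A549 ARE_Fluc cells after 18-24 h of compound exposure in a concentration series. The subsequent BugLite luminescent read reports ARE-luciferase activity.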
# Nrf2 ARE act: activates Nrf2 signaling | AREc32 ARE-luciferase reporter (MCF7-derived line), luminescence, 24 h | Potency, µM (top dose mostly 46.1 µM), hits mostly activators | actives 0.31% (n = 410,000) | AID 624171; further: nearly all actives have a fitted effect of over 65% in size
#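 For detection, Steady-Glo was added and plates sat 30 min at RT; before that, AREc32_Fluc cells grown overnight in OPTI-MEM/5% FBS had been treated with 23 nL compound for 24 hr at 37 deg C.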
# A number is an active result; 0 = inactive; ? = inconclusive; - = no result given. An excerpt weighted towards active compounds, which were near 2.1% of everything screened. Unless noted, the call rests on the fitted dose curve; in most records, active means well fitted curve in the direction sought with a large enough effect; inconclusive means small, poorly fitted or top-dose-only effect, or another doubt; inactive means no such curve, though single readings can be large; an effect the other way counts as inactive or inconclusive.
SMILES,miR-21 reporter,Glioma ERSR ind,Nrf2 block,TSG101-PTAP inh,A549 tox,Nrf2 ARE act
CCC(C)C(N)C(=O)NC(CC(N)=O)C(=O)NC(CC(C)C)C(=O)NC(CCCCN)C(=O)NC(C)C(=O)NC(CC(C)C)C(=O)NC(C)C(=O)NC(C)C(=O)NC(CC(C)C)C(=O)NC(C)C(=O)NC(CCCCN)C(=O)NC(CCCCN)C(=O)NC(C(=O)NC(CC(C)C)C(N)=O)C(C)CC (configuration not stated),-,0,-,-,-,-
CC(C)Cc1ccc(C(C)C(=O)Nc2cccnc2)cc1 (configuration not stated),0,0,6.5µM,0,0,0
CC(C(=O)Nc1cccnc1)c1ccc([N+](=O)[O-])cc1 (configuration not stated),0,0,0,0,0,0
COc1ccc2c(c1)CCc1cc(C(=O)N3CCN(c4ccc(N5CCOCC5)nn4)CC3)sc1-2,0,0,18µM,0,0,0
COc1cccc(C(=O)N2CCN(c3ccc(N4CCOCC4)nn3)CC2)c1,-,0,0,0,0,0
Cn1cnc([N+](=O)[O-])c1NC(C)(C)C,0,0,-,0,0,0
Cn1cnc([N+](=O)[O-])c1S(=O)(=O)c1ccc(Cl)cc1,?,0,18µM,0,?,0
Cc1cccc2c(N3CCCC3)nc(CNS(=O)(=O)c3ccccc3Cl)nc12,-,0,-,-,-,-
Cc1ccc(S(=O)(=O)N2CCN(c3nc(-c4cccs4)nc(C)c3C)CC2)cc1,-,0,0,-,0,-
Cc1ccc(S(=O)(=O)N2CCN(c3nc(-c4cccs4)nc4ncccc34)CC2)cc1,-,0,12µM,-,0,-
Cc1ccc(S(=O)(=O)N2CCN(c3ccnc(-c4cccs4)n3)CC2)cc1,-,-,15µM,-,0,-
Cc1cc2c(s1)c1cnn(Cc3c(Cl)cccc3Br)c(=O)c1n2C,-,-,0,-,0,-
CN1C(CSCC(F)(F)F)Nc2cc(Cl)c(S(N)(=O)=O)cc2S1(=O)=O (configuration not stated),-,0,-,-,-,-
Cc1cccc(CNC(=O)c2cnn(-c3ncc(C)c(-c4ccc(F)cc4)n3)c2C)n1,-,0,-,-,-,-
COC(=O)C1CCN(Cc2ccc3c(c2)CN(C(=O)C(C)N2CCOCC2)CCO3)CC1 (configuration not stated),-,0,-,-,-,-
COc1ccc(Cl)cc1CN1C(=O)NC2(CCCCCC2)C1=O,0,0,?,0,0,0
CCOc1cc(Br)c(CN2C(=O)NC3(CCCCCC3)C2=O)cc1OCC,0,0,21µM,0,?,0
O=C(NCCc1ccncc1)c1cnn(-c2ncc3c(n2)-c2ccccc2CCC3)c1C1CC1,-,0,-,-,-,-
Cc1ccc2c(C(=O)CN3CCN(c4ccccc4)CC3)c(C)[nH]c2c1,0,0,-,0,0,0
COc1cccc(N2CCN(CC(=O)NC3=Nc4ccccc4N=C(C)C3c3ccccc3)CC2)c1 (configuration not stated),0,0,?,0,0,0
COc1cccc(N2CCN(CC(=O)c3c(C)[nH]c4ccccc34)CC2)c1,0,0,12µM,0,?,0
COC(=O)c1[nH]c2ccccc2c1NC(=O)CN1CCN(c2cccc(OC)c2)C(C)C1 (configuration not stated),0,0,26µM,0,0,0
COc1cccc(N2CCN(CC(=O)Nc3nnc(-c4ccccc4)s3)CC2)c1,0,0,12µM,0,0,0
CCN(CC)C1CCN(C(=O)c2cnn(-c3nccc(-c4ccco4)n3)c2C(C)C)C1 (configuration not stated),-,0,-,-,-,-
Cc1c(CN2CCOc3ccc(C(C)(O)COc4ccccc4)cc3C2)cnn1C (configuration not stated),-,0,-,-,-,-
SMILES,miR-21 reporter,Glioma ERSR ind,Nrf2 block,TSG101-PTAP inh,A549 tox,Nrf2 ARE act
Cc1cnc(-n2ncc(C(=O)NCC3COCCO3)c2C2CC2)nc1-c1cccs1 (configuration not stated),-,0,-,-,-,-
O=C(CSc1ncnc2ccccc12)c1cccs1,0,0,?,0,0,?
Cc1ccc(C(=O)CSc2ncnc3ccccc23)o1,0,0,?,0,0,13µM
COc1cc([C@@H]2c3cc4c(cc3[C@@H](O[C@@H]3O[C@H]5CO[C@H](C)O[C@H]5[C@H](O)[C@@H]3O)[C@H]3COC(=O)[C@H]23)OCO4)cc(OC)c1OP(=O)(O)O,-,0,-,-,-,-
C(=NN1CCCCCC1)c1ccc2ccccc2n1,-,0,18µM,0,0,0
C[N+]1(CC(=O)c2ccc(I)cc2)CCOCC1,-,0,-,-,-,-
Cc1ccc2occ(CC(=O)Nc3ccc(S(=O)(=O)N4CCC(C)CC4)cc3)c2c1,0,0,26µM,-,0,0
O=C(Nc1nnc(Cc2ccc(Cl)cc2)s1)C1CCN(C(=O)c2ccco2)CC1,-,0,16µM,-,0,-
CC1CCN(S(=O)(=O)c2ccc(NC(=O)C3CCN(C(=O)c4ccco4)CC3)cc2)CC1,0,0,13µM,0,0,0
O=C(Nc1ccc(Oc2ccccc2)cc1)C1CCN(S(=O)(=O)c2ccccc2)CC1,0,0,21µM,-,0,0
CCc1nnc(NC(=O)C2CCN(C(=O)c3ccco3)CC2)s1,0,0,0,0,0,0
Cc1ccc(S(=O)(=O)N2CCC(C(=O)Nc3ccc(Oc4ccccc4)cc3)CC2)cc1,0,0,?,-,0,0
COc1cccc(-c2ccc(O)c(CNCc3cccc(OC)c3OC)c2)n1,-,0,-,-,-,-
C[C@@H]1O[C@@]2(CS1)CN1CCC2CC1,-,0,-,-,-,-
COc1cc(/C=N/Nc2snc(SC)c2C#N)cc(OC)c1OC,0,0,4.6µM,0,0,0
CSc1nsc(N/N=C/c2ccc3c(c2)OCO3)c1C#N,0,0,0,0,0,0
CC1CN(Cc2cccn2-c2cccnc2)Cc2cc(Cl)ccc2O1 (configuration not stated),-,0,-,-,-,-
COc1cccc2c1C(=O)/C(=C/c1ccc(N(C)C)cc1)C2,-,0,-,-,-,-
Cc1ccc(C(=O)N(CCc2ccccc2)Cc2ccccc2)cc1S(=O)(=O)N1CCOCC1,-,0,?,0,0,0
CC1CN(S(=O)(=O)c2cc(C(=O)N(CCc3ccccc3)Cc3ccccc3)ccc2Cl)CC(C)O1 (configuration not stated),-,0,7.3µM,0,0,0
CCOC(=O)c1cc(-c2cccs2)nc2c1c(C)nn2-c1ccccn1,0,0,23µM,0,0,0
Cc1nn(-c2ccccn2)c2nc(-c3cccs3)cc(C(=O)NCc3ccco3)c12,0,0,?,0,0,0
Cc1ccc(CNC(=O)CSc2nc3n[nH]c(C)c3c(=N)n2-c2cccc(C)c2)cc1,0,0,15µM,0,?,0
COc1ccccc1CN(C)CC(=O)Nc1ccccc1-c1ccccc1,0,0,23µM,0,?,0
